Literature values, collected in patent publication US20260207703A1 (priority 2023, published 2026).

Conditions: nonlethal dose of xylazine 100 mg/kg

For xylazine, which “decrease of the estimated LD50 dose for fentanyl” value is on record?
The value was “approximately 100 fold”.
